## Yeast mating assay 1: variants of the scFv Ab-14

Reference: Engelhart et al. 2022, doi:10.1038/s41597-022-01779-4. File: FLAb, binding data.

Antigen: PDVDLGDISGINAS, a 14-residue peptide of the SARS-CoV-2 spike HR2 region.

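The starting antibody came from a phage panning campaign against this peptide. Variants in AAYL50 differ from the parent at up to three CDR positions; double and triple changes were sampled at random. In AlphaSeq, yeast of one mating type display the scFv and yeast of the other type display the target. Mating (16 h, 30 °C) was followed by selection of diploids and sequencing of their barcodes. A regression on co-assayed BCL2-family reference pairs converts the normalised counts of each replicate to an apparent Kd. Each pool was mated in three replicate cultures.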

The variants keep the heavy chain, the linker and the frameworks of Ab-14 (scFv order VH, a (GGGGS)3 linker, VL).
VH: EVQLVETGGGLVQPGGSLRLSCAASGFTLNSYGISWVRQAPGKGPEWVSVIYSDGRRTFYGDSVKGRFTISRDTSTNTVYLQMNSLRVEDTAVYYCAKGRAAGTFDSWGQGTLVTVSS
VL: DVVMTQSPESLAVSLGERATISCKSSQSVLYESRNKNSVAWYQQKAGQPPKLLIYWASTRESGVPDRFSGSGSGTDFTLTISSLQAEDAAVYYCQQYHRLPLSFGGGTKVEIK

Variants are written as CDR1, CDR2 and CDR3 of the light chain (limits as in the source). Parent: KSSQSVLYESRNKNSVA, WASTRES, QQYHRLPLS.
The read-out is the apparent dissociation constant on a log10 scale (nM): the lower, the stronger.
Averages over replicates are reported, and they cover detected replicates only.
"nd" means that the variant was in the library but no mating with the target was seen in that replicate; the authors take this as a sign of poor binding, and no number exists.
Three control strains display no target. For library AAYL50, 18% of the pairings with them gave a signal, with a median of 4.19 and one signal in twenty below 2.99, so weak values seen in few replicates may be background. The control count says in how many pairings with the empty strains this scFv gave a signal, with their mean in brackets.

| CDR-L1 | CDR-L2 | CDR-L3 | log10 Kd, replicates | mean log10 Kd (nM) | control signals |
|---|---|---|---|---|---|
| KSSQSVLYESRLKNSVA | WASTRES | THYHRLPLS | 0.96 / 1.15 / 1.00 | 1.04 | 0 of 9 |
| KSSQSVLYESRNKNSVA | WAHTRGS | QQYHRLPLS | 2.13 / 2.75 / 2.38 | 2.42 | 0 of 9 |
| KYSQSVLYESRMKNSVA | WASTRES | QQYHRLPYS | 2.97 / nd / nd | 2.97 | 0 of 9 |
| KSSQSVLYESRNKNSVA | WASPRES | QQYHSLPLS | nd / nd / nd | nd | 1 of 9 (2.81) |
| KSSDMVLYESRNKNPVA | WASTRES | QQYHRLPLS | 1.18 / 1.30 / 1.16 | 1.21 | 2 of 9 (3.33) |
| KCSQSVLYESRNKNSVA | WAETRES | QIYHRLPLS | 4.62 / 4.14 / 4.16 | 4.31 | 3 of 9 (4.62) |
| KSSQSVFYESRNKNSVA | WASTRES | QEYHRLPLL | 1.89 / 1.94 / 2.06 | 1.96 | 2 of 9 (3.80) |
| LSSQSVLYESRNKNSVY | WASTRES | KQYHRLPLS | nd / 5.53 / nd | 5.53 | 1 of 9 (3.67) |
| QSSQSVLYESRNKNQVA | WASTRES | QQYHRLPLS | 2.06 / 2.10 / 4.50 | 2.89 | 0 of 9 |
| KSSQSVLYESINKNSVH | CASTRES | QQYHRLPLS | nd / 4.66 / 3.49 | 4.07 | 2 of 9 (3.71) |
| KSSSSVLYESRNKNSVK | WASTRES | QQYHRLPLS | nd / 3.61 / nd | 3.61 | 3 of 9 (4.05) |
| KSSQSVLYESRNKNSVA | WASTRQS | QQYTRLPLS | nd / nd / nd | nd | 0 of 9 |
| KSSQSVLYESRNKNSVA | WRPTRES | QQYHRLPLS | nd / nd / nd | nd | 2 of 9 (3.88) |
| KSSQSVLYEHRNKNSVA | WASTKES | QQYHRLPWS | 4.81 / nd / 3.37 | 4.09 | 4 of 9 (4.23) |
| KSSQSVEYESRNKNSRA | QASTRES | QQYHRLPLS | 5.49 / nd / nd | 5.49 | 1 of 9 (4.58) |
| KSSQSVLYESINPNSVA | WSSTRES | QQYHRLPLS | nd / nd / nd | nd | 0 of 9 |
| KSAQSVLYESRNKNSSA | WASSRES | QQYHRLPLS | 3.97 / nd / nd | 3.97 | 1 of 9 (2.00) |
| KSSQSVLYESRNKNMVA | WASTRES | QQYYRVPLS | 4.28 / 3.65 / 5.15 | 4.36 | 8 of 9 (4.58) |
| KSSQSVLYESPNKWSVA | WASTRES | QQKHRLPLS | nd / 4.16 / 3.30 | 3.73 | 4 of 9 (3.80) |
| KSSQSVLYESRNKNSVM | WASTNES | QQYHRLPMS | nd / nd / nd | nd | 1 of 9 (5.01) |
| KKSQYVLYESRNKNSVA | WYSTRES | QQYHRLPLS | nd / nd / nd | nd | 1 of 9 (4.92) |
| KSSQSCLYESRNKNSVA | HASTRCS | QQYHRLPLS | -0.25 / 0.16 / -0.34 | -0.14 | 0 of 9 |
| KSSQSVLYESREVNSVA | WASTRES | QQYHRLPLS | 3.54 / 3.04 / 3.86 | 3.48 | 4 of 9 (4.98) |
| KSSQSVLQESREKNSVA | WASTRES | QQYHRLGLS | 1.56 / 1.29 / 1.61 | 1.49 | 1 of 9 (4.01) |
| KSSQSVLYESRNKNSVA | WAVTRES | QVHHRLPLS | 5.06 / nd / nd | 5.06 | 1 of 9 (3.55) |
| KSSQSVLYESRNGNSVA | WPSTRFS | QQYHRLPLS | 5.10 / 3.71 / nd | 4.40 | 4 of 9 (4.14) |
| KSSQSVLYTSRNKNCVA | WASTRNS | QQYHRLPLS | 5.48 / 4.64 / 5.59 | 5.24 | 3 of 9 (4.54) |
| HSSQSVLYVSRNKNSVA | WISTRES | QQYHRLPLS | nd / nd / nd | nd | 1 of 9 (4.17) |
| KPHQSVLYEARNKNSVA | WASTRES | QQYHRLPLS | 1.76 / 1.74 / 2.61 | 2.04 | 0 of 9 |
| KSSQSVLYESRNKNSVA | WASVRES | QNYNRLPLS | 1.98 / 2.21 / 2.66 | 2.28 | 1 of 9 (3.68) |
| KSSFQVLYESRNPNSVA | WASTRES | QQYHRLPLS | 1.45 / 1.59 / 1.46 | 1.50 | 0 of 9 |
| KSSQSFLYESRNKNSVA | MASTRES | QQQHRLPLS | 0.13 / 0.38 / 0.26 | 0.26 | 3 of 9 (5.36) |
| KSSQSVLCESRNKNCVA | WASTRES | QQYTRLPLS | 1.96 / 2.63 / 1.79 | 2.13 | 0 of 9 |
| KSRQSVLYESRNMNSVD | WASTRES | QQYHRLPLS | 3.82 / 3.15 / 5.13 | 4.03 | 2 of 9 (3.62) |
| KSSISYLYESRNKNSVA | EASTRES | QQYHRLPLS | -0.75 / -0.28 / -0.67 | -0.57 | 0 of 9 |
| KSSQSVLHESRNKNSVA | WASTAES | QQYHRLNLS | nd / nd / nd | nd | 1 of 9 (4.36) |
| KSSSSVLYESRNKNSVA | WASTRES | QQYWRLPLS | 1.00 / 1.14 / 0.94 | 1.03 | 2 of 9 (3.75) |
| KSSQSVLYESRWKNCVA | WASTRES | QQYHRLHLS | nd / nd / nd | nd | 2 of 9 (4.37) |
| NSSQSVLYESRNKNSVA | WASTRES | QQYYRLPWS | 3.42 / nd / nd | 3.42 | 0 of 9 |
| ESSQSVLYESRNKNFVA | WASTRES | QQYHRLPQS | nd / nd / nd | nd | 0 of 9 |
| KSSQSVLYESLNKNSVA | SASTRKS | QQYHRLPLS | 2.56 / 2.00 / 2.02 | 2.19 | 1 of 9 (4.12) |
| KSSQSVLYESCNKNSVA | WKSTREM | QQYHRLPLS | 3.67 / 3.22 / nd | 3.45 | 2 of 9 (3.30) |
| KSSLSVLYESRNKSSVA | WASTRES | QQYHRLPLQ | 1.45 / 1.66 / 2.05 | 1.72 | 2 of 9 (3.67) |
| KSSQSVLYESRHKESVA | WASTRES | QQYHRLPLS | 2.26 / 2.25 / 2.51 | 2.34 | 1 of 9 (2.62) |
| KSSQSVLYESRNKNSVA | WASTRES | QQYFRLPCS | 0.89 / 1.34 / 1.27 | 1.17 | 2 of 9 (4.05) |
| KSSQSVLYESRNKNSVQ | YASTRES | QQYHRLPTS | nd / nd / nd | nd | 0 of 9 |
| MSSQSVLYESRNKNSVA | WASTRES | SQYHRLGLS | 3.66 / 3.98 / nd | 3.82 | 0 of 9 |
| ESSQSVLYESRNFNSVA | WASTRWS | QQYHRLPLS | nd / 3.29 / 2.44 | 2.87 | 0 of 9 |
| KSTQSVLYESRNKNSVA | WASTRES | QQYHRLAQS | nd / 3.57 / nd | 3.57 | 3 of 9 (4.17) |
| KSSQSVLTRSRNKNSVA | WASTRES | QQYHRTPLS | nd / nd / nd | nd | 3 of 9 (4.24) |

The first 6 entries again:

CDR-L1	CDR-L2	CDR-L3	log10 Kd, replicates	mean log10 Kd (nM)	control signals
KSSQSVLYESRLKNSVA	WASTRES	THYHRLPLS	0.96 / 1.15 / 1.00	1.04	0 of 9
KSSQSVLYESRNKNSVA	WAHTRGS	QQYHRLPLS	2.13 / 2.75 / 2.38	2.42	0 of 9
KYSQSVLYESRMKNSVA	WASTRES	QQYHRLPYS	2.97 / nd / nd	2.97	0 of 9
KSSQSVLYESRNKNSVA	WASPRES	QQYHSLPLS	nd / nd / nd	nd	1 of 9 (2.81)
KSSDMVLYESRNKNPVA	WASTRES	QQYHRLPLS	1.18 / 1.30 / 1.16	1.21	2 of 9 (3.33)
KCSQSVLYESRNKNSVA	WAETRES	QIYHRLPLS	4.62 / 4.14 / 4.16	4.31	3 of 9 (4.62)